This is an account of results in US20040241222A1, “Lipid-polymer-conjugates compositions” (priority 2001, published 2004).

A short description of data set [1]: Encapsulation efficiency of prednisolone phosphate in liposomes (HPLC). As to conditions: prednisolone phosphate-containing DPPC/cholesterol liposomes. It is filed as physicochemical.
Data set [2] can be described thus: Particle size and polydispersity of liposomes by dynamic light scattering. As to conditions: prednisolone phosphate-containing DPPC/cholesterol liposomes, light scattering (Malvern Zeta-sizer). It is filed as physicochemical. The protocol: The lipid loss during preparation of the liposomes was 25%, determined by comparing the final radioactivity of the preparation with the activity before the extrusion procedure. The suspension of liposomes was stored in a nitrogen atmosphere at 4° C.
Liposomes were prepared using the film method, as described in example 23. Instead of egg phosphatidylcholine dipalmitoyl phosphatidylcholine was used. 5 mM HEPES buffer was added to the dry lipid film and shaken during 5 minutes in the presence of glass beads in order to enable complete hydration of the lipid film. The liposomes were sized by extrusion 12 times through 2 stacked PC membranes having pore sizes of […]. The resulting liposome dispersions were dialysed (MWCO 10,000) and average particle sizes were determined using dynamic light scattering technique. See table 1 for the properties of the liposomal preparations.

In the case of “Poly(2-hydroxyethyl)-L-asparagine DODASuc [Ex. 14]”, in data set [1], the “Encapsulation efficiency of the prednisolone phosphate” value was 2.6%. In data set [2], the Mean particle size result is listed as “about 85 nm”.
